From US20060093578A1, “Method and composition for treating multiple sclerosis” (Kyorin Pharmaceutical Co., Ltd., priority 2004, published 2006)

Experiments:
Format in all cases: cell-based, C57BL/6J mice
[1] = tested on: microglia; assay: mRNA expression of class II MHC antigen and costimulatory molecules in IFNγ-treated microglia (RT-PCR)
Description: (§1) Samples used for the experiments were prepared as described below. Microglia were isolated from the primary mixed glial cell cultures from newborn C57BL/6J mice on the 14th day, by the “shaking off” method previously described (Suzumura A, Mezitis S G E, Gonatas N, Silberberg D H. “MHC antigen expression on bulk isolated macrophage-microglia from newborn mouse brain: induction of Ia antigen expression by gamma-interferon.” J Neuroimmunol 1987;15:263-278, the contents of which are hereby incorporated by reference in their entirety); the purity of the cultures was 97% to 100% as determined by immunostaining for the Fc receptor. The cultures were maintained with Dulbecco's modified Eagle's minimum essential medium supplemented with 10% fetal calf serum, 5 μg/ml bovine insulin, and 0.2% glucose.
The effects of IFNβ on mRNA expression of class II MHC antigens and costimulatory molecules were evaluated in the following manner. Microglia at a concentration of 1×10^6 /ml were plated on a well of a 24 well plate and stimulated with 1 ng/ml INFγ in the presence of a graded dose of IFNβ for 24 hours, then the cells were harvested to extract RNA as described hereinabove. The mRNA expression for class II MHC antigen, B7-1, B7-2, and ICAM-1 were examined by RT-PCR, with the specific primers as recited in Table 1 above.

[2] = tested on: peritoneal macrophages; assay: Production of inflammatory mediators by peritoneal macrophages (ELISA, Griess)
Description: Peritoneal macrophages were collected from the same strain of mice that were intraperitoneally injected with thioglycolate 48 hours prior to collection. Macrophages were cultured with the same medium as microglia.
(§2) The effects of IFNβ on cytokines and NO production were evaluated in the flooding manner. Microglia and peritoneal macrophages were cultured in 24-well culture plates at a concentration of 1×10^6/ml with or without 1 μg/ml LPS (lipopolysaccharide) for 24 hours in the presence of a graded concentration of IFNβ. The supernatant was then collected and stored at −70° C. until assessed. From the remaining cells, total RNA was extracted, following the guanidinium thiocyanate method (RNeasy Mini Kit;QIAGEN). The cDNA encoding mouse TNFα, IL-1β, IL-6, iNOS (inducible nitric oxide synthetase), and IL-12, was generated by reverse transcription-polymerase chain reaction (RT-PCR) using Superscript II (INVITROGEN), and Ampli Taq DNA polymerase (APPLIED BIOSYSTEMS) with the specific primers shown in Table 1.
(§3) Cytokine production was measured with an ELISA kit specific for IL1, IL-6, TNFα, and IL-12 p70 (TECHNE Corp. MN). NO production was determined by Griess reaction. Briefly, a 50 μl aliquot of supernatants were mixed with an equal volume of Griess reagent (0.1% N-ethylenediarnine dihydrochloride, 1% sulfanilamide, and 2.5% phosphoric acid) and incubated for 15 minutes at room temperature, and the absorbance was read at 540 nm on a microtiter plate reader. Nitrite concentrations were calculated from a standard curve of NaNO2 (Yoshikawa M, Suzumura A, Tamaru T, et al. “Effects of phosphodiesterase inhibitors on microglia.” Multiple Scler 1999;5: 126-133, the contents of which are hereby incorporated by reference in their entirety).

[3] = tested on: microglia; assay: NO production by microglia (Griess reaction); conditions: non-stimulated or LPS-stimulated microglia (FIG. 2D)
Description: Samples used for the experiments were prepared as described below. Microglia were isolated from the primary mixed glial cell cultures from newborn C57BL/6J mice on the 14th day, by the “shaking off” method previously described (Suzumura A, Mezitis S G E, Gonatas N, Silberberg D H. “MHC antigen expression on bulk isolated macrophage-microglia from newborn mouse brain: induction of Ia antigen expression by gamma-interferon.” J Neuroimmunol 1987;15:263-278, the contents of which are hereby incorporated by reference in their entirety); the purity of the cultures was 97% to 100% as determined by immunostaining for the Fc receptor. […]
The effects of IFNβ on cytokines and NO production were evaluated in the flooding manner. […] The supernatant was then collected and stored at −70° C. until assessed. […]
Cytokine production was measured with an ELISA kit specific for IL1, IL-6, TNFα, and IL-12 p70 (TECHNE Corp. MN). NO production was determined by Griess reaction. Briefly, a 50 μl aliquot of supernatants were mixed with an equal volume of Griess reagent (0.1% N-ethylenediarnine dihydrochloride, 1% sulfanilamide, and 2.5% phosphoric acid) and incubated for 15 minutes at room temperature, and the absorbance was read at 540 nm on a microtiter plate reader. […]

[4] = tested on: microglia; assay: Cytokine production (TNFα, IL-1β, IL-6, IL-10) by microglia (ELISA)
Description: as §1
The effects of IFNβ on cytokines and NO production were evaluated in the flooding manner. Microglia and peritoneal macrophages were cultured in 24-well culture plates at a concentration of 1×10^6/ml with or without 1 μg/ml LPS (lipopolysaccharide) for 24 hours in the presence of a graded concentration of IFNβ. The supernatant was then collected and stored at −70° C. until assessed. From the remaining cells, total RNA was extracted, following the guanidinium thiocyanate method (RNeasy Mini Kit;QIAGEN). […]
as §3
In order to evaluate candidate agents that protect against IFNβ-induced elevation of inflammatory products, the effects of cAMP-elevating agents were investigated. In particular, the phosphodiesterase inhibitor (PDEI) ibudilast was evaluated by culturing microglia at a concentration of 1×10^6/ml in 24-well culture plates with 10^4 U/ml IFNβ and/or 1 μg/ml LPS, in the presence of 1-100 μM ibudilast for 24 hours. Supernatants were then collected and assessed for the cytokine contents by ELISA and for NO by Griess method. […]

[5] = tested on: microglia; assay: mRNA expression of inflammatory mediators and IL-12 p35/p40 in microglia (RT-PCR)
Description: as §1, §2

[6] = tested on: MOG 35-55-specific T cells; assay: Cytokine production / Th1 differentiation of MOG 35-55-specific T cells with microglia as antigen presenting cells (ELISA)
Description: To assess the effects on Th1 differentiation, the following techniques were employed. Myelin oligodendrocyte glycoprotein (MOG) 35-55-specific T cells were prepared from C57BL/6J mice immunized with 200 μg/head of MOG 35-55 (kindly provided by Dr. H. Offner, Oregon Health and Science University, Portland, Oreg.) in Freund's complete adjuvant containing 300 μg/head Mycobacterium tuberculosis H37RA (DIFCO Lab., Detroit, Mich.). Ten days later, lymph node cells were harvested, and 8×10^6 cells were cultured with 20 μg/ml MOG 35-55 for 48 hours. After expanded in the presence of IL-2 for 7 days, MOG 35-55-specific T cells were used for following experiments. Microglia treated with 1 ng/ml IFNγ for 24 hr in the presence of a graded dose of IFNβ (0-10^4 U/ml) were used as antigen presenting cells after washed 3 times with PBS. Also, 1×10^6/ml MOG 35-55specific T cells were cultured on the above-treated microglia with or without 20 μg/ml MOG 35-55. Supernatants were collected at 48 hours and assessed for the contents of IFNγ, IL-4 and IL-10 by ELISA kits (BD BIOSCIENCES, San Diego, Calif.).

[7] = tested on: IL-12 p70 production by microglia; assay: IL-12 p70 production by LPS + IFNγ-stimulated microglia (ELISA); conditions: for IL-12 p70: microglia + LPS (1 μg/mL) + IFNγ (1 ng/mL), mean ± SD (n = 9)
Description: as §1, §2, §3
In addition, the direct effects of PDEIs on microglia were investigated in the absence of IFNβ. As shown previously, microglia produced IL-12 p70 upon response to LPS and IFNγ stimulation (Suzumura A, Mezitis S G E, Gonatas N, Silberberg D H. “MHC antigen expression on bulk isolated macrophage-microglia from newborn mouse brain: induction of Ia antigen expression by gamma-interferon.” J Neuroimmunol 1987;15:263-278). […]

[8] = IFNγ-treated microglia (FIG. 5)
[9] = LPS-stimulated macrophages (FIG. 7A-7D)
[10] = LPS-stimulated, ELISA (FIG. 2A-2C)
[11] = LPS-stimulated microglia, dose-dependent (FIG. 3A)
[12] = IFNβ added with IFNγ to microglia used as APC (FIG. 6B, 6D)
[13] = IFNβ added with IFNγ to microglia used as APC, MOG 35-55 (FIG. 6A, 6C)

Interferon-β [IFNβ]
class II MHC mRNA expression induced by IFNγ ([1]; IFNβ at 10^4 and 10^3 U/ml (FIG. 5)): suppressed | expression of B7-1 [1, 8]: slightly suppressed | mRNA expression for B7-2 [1, 8]: no significant effect | mRNA expression for ICAM-1 [1, 8]: no significant effect | IL-1β production [2, 9]: dose-dependently increased | IL-6 production [2, 9]: dose-dependently increased | NO production [2, 9]: dose-dependently increased | TNFα production [2, 9]: dose-dependently increased | NO production ([2]; unstimulated macrophages (FIG. 7D)): dose-dependently increased | production of NO [3]: increased | release of IL-1β from microglia [4, 10]: dose-dependently increased | release of IL-6 from microglia [4, 10]: dose-dependently increased | release of TNFα from microglia [4, 10]: dose-dependently increased | production of anti-inflammatory cytokine IL-10 ([4]; microglia, ELISA for secreted protein and RT-PCR for mRNA (FIG. 4)): dose-dependently increased | expression of p35 and p40 mRNA ([5]; LPS and IFNγ-treated microglia (FIG. 1, FIG. 10)): dose-dependently suppressed | mRNA expression for IL-1β ([5]; LPS-stimulated microglia, changes were mild (FIG. 3A)): up-regulated | mRNA expression for IL-6 [5, 11]: up-regulated | mRNA expression for TNFα [5, 11]: up-regulated | mRNA expression for iNOS [5, 11]: up-regulated | expression of TNFα ([5]; non-stimulated microglia (FIG. 3B)): enhanced | changes of production of IL-4 by MOG-specific T cells [6, 12]: mild | changes of production of IL-10 by MOG-specific T cells [6, 12]: mild | IFNγ produced by MOG-specific T cells [6, 13]: decrease | IL-2 produced by MOG-specific T cells [6, 13]: decrease | differentiation of MOG 35-55-specific T cells into Th1 phenotype ([6]; MOG 35-55 presented by microglia): significantly suppressed; also recorded: did not directly block | effects on cytokine production by MOG-specific T cells ([6]; MOG 35-55 presented by microglia (FIG. 11)): not remarkable | IL-12 production by microglia ([7]; LPS and IFNγ stimulation, graded doses (FIG. 1, FIG. 9A)): dose-dependently suppressed | IL-12 p70 ([7]; IFNβ 10^2 U/mL): 78 ± 18 pg/mL | IL-12 p70 ([7]; IFNβ 10^3 U/mL): 21 ± 12 pg/mL | IL-12 p70 ([7]; IFNβ 10^4 U/mL): 23 ± 4 pg/mL

“Also recorded” adds a separate entry of the source.
